Source: ChEMBL document CHEMBL3091322 (J Med Chem, 2013)

Organism: Rattus norvegicus
Test: Selectivity ratio of Ki for Sprague-Dawley rat brain frontal cortex NET to Ki for Sprague-Dawley rat brain stem SERT
Assay type: tissue-based

SMILES	Ratio Ki
CCCCN(C)CCCC1(c2ccc(F)cc2)OCc2cc(C#N)ccc21 (racemic)	4.5
CN(C)CCCC1(c2ccc(F)cc2)OCc2cc(CN3CCOCC3)ccc21 (racemic)	5880
